Test results from patent US20190300576A1.

Molecular target: monoclonal ANTI-FLAG M2 antibody
Test: BLI

Kd: 15 nM
Substance: Flag peptide (57a)
